Laboratory results: patent publication US10183938B2, “Geminal substituted quinuclidine amide compounds as agonists of α-7 nicotonic acetylcholine receptors” (AXOVANT SCIENCES GMBH, priority 2014, dated 2019)
Counter-ions that a name gives are not always drawn.

Sequences of proteins named here, by UniProt entry; tags and fusion partners are left off. Residues count along the entry.
UniProt P36544, 23-502 limits assumed: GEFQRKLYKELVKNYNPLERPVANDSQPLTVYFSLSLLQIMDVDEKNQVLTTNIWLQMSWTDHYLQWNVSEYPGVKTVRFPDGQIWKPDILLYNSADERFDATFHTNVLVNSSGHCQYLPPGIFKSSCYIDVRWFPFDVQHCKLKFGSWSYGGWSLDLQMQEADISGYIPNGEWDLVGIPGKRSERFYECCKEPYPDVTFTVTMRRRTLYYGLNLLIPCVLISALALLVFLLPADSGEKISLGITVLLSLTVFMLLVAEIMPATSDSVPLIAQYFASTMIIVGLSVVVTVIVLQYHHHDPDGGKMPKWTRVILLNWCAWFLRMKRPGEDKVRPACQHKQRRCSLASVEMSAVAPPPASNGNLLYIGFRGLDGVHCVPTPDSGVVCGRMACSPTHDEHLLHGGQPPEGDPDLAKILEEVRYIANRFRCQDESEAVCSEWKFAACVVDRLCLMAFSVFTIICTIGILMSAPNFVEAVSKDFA

target: human α7 nAChR (Homo sapiens (Human), UniProt P36544); assay: Human α7 nAChR binding assay ([125I]-αBungarotoxin competition binding); details: read-out: h-a7 Ki; SH-SY5Y membranes, 0.05 nM [125I]-αBgt, Cheng Prusoff

Compound | Ki
O=C(N[C@@H]1C2CCN(CC2)C12CC2)c1cc2ccc(-n3ccnn3)cc2s1 [(R)-98, (R)—N-(1′-azaspiro[cyclopropane-1,2′-bicyclo[2.2.2]octan]-3′-yl)-6-(1H-1,2,3-triazol-1-yl)benzo[b]thiophene-2-carboxamide hydrochloride] | > 30 µM
CC1(C)[C@H](NC(=O)c2cnc3ccccc3c2)C2CCN1CC2 | > 30 µM
COc1ccc2sc(C(=O)N[C@H]3C4CCN(CC4)C3(C)C)cc2c1 [(S)-21, (S)—N-(2,2-dimethylquinuclidin-3-yl)-5-methoxybenzo[b]thiophene-2-carboxamide hydrochloride] | > 30 µM
CC1(C)[C@H](NC(=O)c2ccc3c(c2)OC(F)(F)O3)C2CCN1CC2 | > 30 µM
CS(=O)(=O)c1ccc2cc(C(=O)N[C@@H]3C4CCN(CC4)C34CC4)sc2c1 [(R)-103, (R)-6-(methylsulfonyl)-N-(1′-azaspiro[cyclopropane-1,2′-bicyclo[2.2.2]octan]-3′-yl)benzo[b]thiophene-2-carboxamide hydrochloride] | > 30 µM
CC1(C)[C@H](NC(=O)c2cc3ccc(-n4ccnn4)cc3s2)C2CCN1CC2.Cl [(R)-208, (R)-N-(2,2-dimethylquinuclidin-3-yl)-6-(1H-1,2,3-triazol-1-yl)benzo[b]thiophene-2-carboxamide hydrochloride] | > 30 µM
CC1(C)[C@H](NC(=O)c2cc3cccc(OC(F)(F)F)c3s2)C2CCN1CC2 | 0.52 µM
Cn1nc(C(=O)N[C@@H]2C3CCN(CC3)C23CC3)c2ccccc21 | > 30 µM
CC1(C)[C@H](NC(=O)c2cc3cccc(Cl)c3s2)C2CCN1CC2 [(R)-3, (R)-7-chloro-N-(2,2-dimethylquinuclidin-3-yl)benzo[b]thiophene-2-carboxamide hydrochloride] | 0.11 µM
O=C(N[C@H]1C2CCN(CC2)C12CC2)c1cnn2ncccc12 [(S)-80, (S)—N-(1′-azaspiro[cyclopropane-1,2′-bicyclo[2.2.2]octan]-3′-yl)pyrazolo[1,5-b]pyridazine-3-carboxamide hydrochloride] | > 30 µM
CC1(C)[C@@H](NC(=O)c2ccc3occc3c2)C2CCN1CC2 [(S)-6, (S)—N-(2,2-dimethylquinuclidin-3-yl)benzofuran-5-carboxamide hydrochloride] | > 30 µM
CC1(C)[C@@H](NC(=O)c2cc3cccnc3s2)C2CCN1CC2 [(S)-28, (S)—N-(2,2-dimethylquinuclidin-3-yl)thieno[2,3-b]pyridine-2-carboxamide hydrochloride] | > 30 µM
(R)-N-(2,2-dimethylquinuclidin-3-yl)-6-(oxetan-3-yl)benzo[b]thiophene-2-carboxamide | > 30 µM
Cn1c(C(=O)N[C@@H]2C3CCN(CC3)C2(C)C)nc2ccccc21 | > 30 µM
Cn1ccc2cc(C(=O)N[C@@H]3C4CCN(CC4)C3(C)C)ccc21 | > 30 µM
COc1ccc(C(=O)N[C@@H]2C3CCN(CC3)C2(C)C)cc1C | > 30 µM
Cl.Cn1cnc2ccc(C(=O)N[C@@H]3C4CCN(CC4)C3(C)C)cc21 [(R)-206, (R)-N-(2,2-dimethylquinuclidin-3-yl)-1-methyl-1H-benzo[d]imidazole-6-carboxamide hydrochloride] | > 30 µM
CC1(C)[C@@H](NC(=O)c2cc3cc(Cl)ccc3s2)C2CCN1CC2 [(S)-13, (S)-5-chloro-N-(2,2-dimethylquinuclidin-3-yl)benzo[b]thiophene-2-carboxamide hydrochloride] | > 30 µM
CC1(C)[C@@H](NC(=O)c2cc3ccc(C(F)(F)F)cc3s2)C2CCN1CC2 [(S)-10, (S)—N-(2,2-dimethylquinuclidin-3-yl)-6-(trifluoromethyl)benzo[b]thiophene-2-carboxamide hydrochloride] | > 30 µM
(R)-N-(2,2-dimethylquinuclidin-3-yl)benzo[d]isoxazole-6-carboxamide hydrochloride | > 30 µM

Compound | Ki
O=C(N[C@@H]1C2CCN(CC2)C12CC2)c1ccc2c(c1)OC(F)(F)O2 | > 30 µM
Cc1ccc2sc(C(=O)N[C@H]3C4CCN(CC4)C3(C)C)cc2c1 [(S)-16, (S)—N-(2,2-dimethylquinuclidin-3-yl)-5-methylbenzo[b]thiophene-2-carboxamide hydrochloride] | > 30 µM
(R)-N-(2,2-dimethylquinuclidin-3-yl)-6-(trifluoromethoxy)benzo[b]thiophene-2-carboxamide hydrochloride | 9.8 µM
CC1(C)[C@@H](NC(=O)c2nc3ccccc3s2)C2CCN1CC2 [(S)-29, (S)—N-(2,2-dimethylquinuclidin-3-yl)benzo[d]thiazole-2-carboxamide hydrochloride] | > 30 µM
CC1(C)[C@@H](NC(=O)c2cc3c(cn2)OCCO3)C2CCN1CC2 [(S)-23, (S)—N-(2,2-dimethylquinuclidin-3-yl)-2,3-dihydro-[1,4]dioxino[2,3-c]pyridine-7-carboxamide hydrochloride] | > 30 µM
CC1(C)[C@H](NC(=O)c2cc3ccc(N4CCOCC4)cc3s2)C2CCN1CC2 [(R)-44, (R)—N-(2,2-dimethylquinuclidin-3-yl)-6-morpholinobenzo[b]thiophene-2-carboxamide hydrochloride] | > 30 µM
CC(C)(C)c1ccc2cc(C(=O)N[C@@H]3C4CCN(CC4)C3(C)C)sc2c1 | > 30 µM
CC1(C)[C@H](NC(=O)c2cc3ccccc3s2)C2CCN1CC2 [(R)-1, (R)—N-(2,2-dimethylquinuclidin-3-yl)benzo[b]thiophene-2-carboxamide hydrochloride] | 0.27 µM
COc1ccc(C(=O)N[C@@H]2C3CCN(CC3)C23CC3)cc1C | > 30 µM
CC1(C)[C@H](NC(=O)c2cnn3ncccc23)C2CCN1CC2 [(R)-27, (R)—N-(2,2-dimethylquinuclidin-3-yl)pyrazolo[1,5-b]pyridazine-3-carboxamide hydrochloride] | > 30 µM
O=C(NC1C2CCN(CC2)C12CC2)c1ccc2occc2c1 (single isomer, unassigned) | 0.25 µM
CC1(C)[C@H](NC(=O)c2cc3ccc(F)cc3s2)C2CCN1CC2 [(R)-8, (R)—N-(2,2-dimethylquinuclidin-3-yl)-6-fluorobenzo[b]thiophene-2-carboxamide hydrochloride] | 0.83 µM
(R)-N-(2,2-dimethylquinuclidin-3-yl)benzo[d]isoxazole-5-carboxamide hydrochloride | > 30 µM
CC1(C)[C@H](NC(=O)c2ccc3occc3n2)C2CCN1CC2 [(R)-37, (R)—N-(2,2-dimethylquinuclidin-3-yl)furo[3,2-b]pyridine-5-carboxamide hydrochloride] | > 30 µM
O=C(N[C@@H]1C2CCN(CC2)C12CC2)c1cnc2ccccc2c1 | > 30 µM
CC1(C)[C@H](NC(=O)c2cc3c(s2)CCCC3)C2CCN1CC2 | > 30 µM
O=C(N[C@@H]1C2CCN(CC2)C12CC2)c1cc2cc(F)c(Cl)cc2s1 [(R)-172, (R)-6-chloro-5-fluoro-N-(1′-azaspiro[cyclopropane-1,2′-bicyclo[2.2.2]octan]-3′-yl)benzo[b]thiophene-2-carboxamide hydrochloride] | 0.445 µM
O=C(NC1C2CCN(CC2)C12CC2)c1cc2ccc(F)cc2s1 (single isomer, unassigned) | 0.22 µM
Cc1nc2ccc(C(=O)N[C@@H]3C4CCN(CC4)C3(C)C)cc2o1 [(R)-33, (R)—N-(2,2-dimethylquinuclidin-3-yl)-2-methylbenzo[d]oxazole-6-carboxamide] | > 30 µM
